Results from patent publication US6936585B2, “Corticotropin releasing factor 2 receptor agonists” (priority 2002, dated 2005).

Tests used:
[1] = biological target: T1, CRF1R (Homo sapiens, UniProt P34998); experiment: CRF1R agonist activation (EC50 / Emax), called comparative CRF binding; assay type: cell-based; settings: for Emax: read-out: CRF1R Emax
T1 sequence (P34998 24-415): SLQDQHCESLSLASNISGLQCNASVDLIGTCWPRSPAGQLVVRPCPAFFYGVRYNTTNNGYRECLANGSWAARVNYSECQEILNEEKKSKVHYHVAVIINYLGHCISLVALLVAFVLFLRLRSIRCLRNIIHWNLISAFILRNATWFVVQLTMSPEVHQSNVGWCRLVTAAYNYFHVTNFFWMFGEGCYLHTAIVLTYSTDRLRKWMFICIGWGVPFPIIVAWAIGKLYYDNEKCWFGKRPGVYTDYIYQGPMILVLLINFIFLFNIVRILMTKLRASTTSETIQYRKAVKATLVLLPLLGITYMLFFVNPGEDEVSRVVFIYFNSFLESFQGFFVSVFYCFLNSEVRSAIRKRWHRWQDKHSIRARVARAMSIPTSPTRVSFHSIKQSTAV
Procedure, shortened: (§1)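 Cells expressing full-length human CRF1R or CRF2R were exposed to peptide or vehicle control, and receptor activation was gauged as cAMP induction. cAMP was measured in cell lysates or via a cAMP-responsive element driving a reporter gene such as luciferase, CAT, GFP or alkaline phosphatase.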

[2] = biological target: T2, CRF2R (Homo sapiens, UniProt Q13324); experiment: CRF2R agonist activation (EC50 / Emax), called comparative CRF binding; assay type: cell-based; settings: for Emax: read-out: CRF2R Emax
T2 sequence (Q13324 1-411): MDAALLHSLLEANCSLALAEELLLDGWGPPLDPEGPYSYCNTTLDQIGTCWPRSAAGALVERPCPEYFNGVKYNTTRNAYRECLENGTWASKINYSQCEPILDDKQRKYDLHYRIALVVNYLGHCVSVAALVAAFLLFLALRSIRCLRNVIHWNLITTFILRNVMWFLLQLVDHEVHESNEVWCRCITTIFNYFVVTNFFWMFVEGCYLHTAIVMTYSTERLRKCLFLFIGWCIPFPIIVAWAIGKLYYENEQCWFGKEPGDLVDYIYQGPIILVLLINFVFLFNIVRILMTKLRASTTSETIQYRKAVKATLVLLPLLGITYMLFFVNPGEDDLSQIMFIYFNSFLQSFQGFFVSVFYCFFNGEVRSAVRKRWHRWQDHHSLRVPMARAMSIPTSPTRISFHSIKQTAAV
Procedure, shortened: as §1

| SMILES | Emax [1] [%] | Emax [2] [%] | EC50 ([1]; CRF1R EC50) [µM] | EC50 [2] [µM] |
| --- | --- | --- | --- | --- |
| CC[C@H](C)[C@H](NC(=O)[C@H](CCCNC(=N)N)NC(=O)[C@H](C)NC(=O)[C@H](CC(N)=O)NC(=O)[C@@H](NC(=O)[C@@H](NC(=O)[C@H](C)NC(=O)[C@H](CCC(N)=O)NC(=O)[C@H](CCC(N)=O)NC(=O)[C@H](CCCCN)NC(=O)[C@H](CCC(=O)O)NC(=O)[C@H](CCCCN)NC(=O)[C@H](CCC(=O)O)NC(=O)[C@H](CCC(N)=O)NC(=O)[C@H](CCCCN)NC(=O)[C@H](CCC(=O)O)NC(=O)[C@@H](NC(=O)[C@H](CCC(=O)O)NC(=O)[C@@H](NC(=O)[C@H](CC(C)C)NC(=O)[C@@H](NC(=O)[C@H](CCCNC(=N)N)NC(=O)[C@H](CC(C)C)NC(=O)[C@H](CC(C)C)NC(=O)[C@H](Cc1ccc(O)cc1)NC(=O)[C@@H](NC(=O)[C@@H]1CCCN1C(=O)[C@@H](NC(=O)[C@H](CC(=O)O)NC(=O)[C@@H](NC(=O)[C@H](CO)NC(=O)[C@@H](NC(=O)[C@@H]1CCCN1C(=O)[C@@H]1CCCN1C(=O)CNC(=O)[C@@H]1CCC(=O)N1)[C@@H](C)CC)[C@@H](C)CC)C(C)C)[C@@H](C)O)[C@@H](C)CC)[C@@H](C)CC)[C@@H](C)CC)[C@@H](C)O)[C@@H](C)O)C(=O)N[C@@H](CC(C)C)C(=O)N[C@@H](C)C(=O)N[C@@H](CCCNC(=N)N)C(=O)N[C@H](C(N)=O)C(C)C [compound 169] | 26 | 93 | – | – |
| CC[C@H](C)[C@H](NC(=O)[C@@H](NC(=O)[C@H](CC(=O)O)NC(=O)[C@H](CC(C)C)NC(=O)[C@H](CC(C)C)NC(=O)[C@H](CC(C)C)NC(=O)[C@H](CCCNC(=N)N)NC(=O)[C@H](CC(N)=O)NC(=O)[C@H](CC(N)=O)NC(=O)[C@H](C)NC(=O)[C@H](C)NC(=O)[C@H](CCC(N)=O)NC(=O)[C@H](CCC(N)=O)NC(=O)[C@H](CCCCN)NC(=O)[C@H](CCC(=O)O)NC(=O)[C@H](CCCCN)NC(=O)[C@H](CCC(=O)O)NC(=O)[C@H](CCC(N)=O)NC(=O)[C@H](CCCCN)NC(=O)[C@H](CCC(=O)O)NC(=O)[C@@H](NC(=O)[C@H](CCC(=O)O)NC(=O)[C@@H](NC(=O)[C@H](CCSC)NC(=O)[C@H](CCCCN)NC(=O)[C@H](CCCNC(=N)N)NC(=O)[C@H](CC(C)C)NC(=O)[C@H](CC(C)C)NC(=O)[C@H](C)NC(=O)[C@@H](NC(=O)[C@@H]1CCCN1C(=O)[C@H](CC(C)C)NC(=O)[C@H](CC(=O)O)NC(=O)[C@@H](NC(=O)[C@H](CO)NC(=O)[C@@H](NC(=O)[C@@H]1CCCN1C(=O)[C@@H]1CCCN1C(=O)CNC(=O)[C@@H]1CCC(=O)N1)[C@@H](C)CC)[C@@H](C)CC)C(C)C)[C@@H](C)CC)[C@@H](C)CC)[C@@H](C)O)C(N)=O [compound 305] | 59.5 | 95.2 | ≥ 1 | 0.0354 |
| CC[C@H](C)[C@H](NC(=O)[C@@H](NC(=O)[C@H](CC(=O)O)NC(=O)[C@H](CC(C)C)NC(=O)[C@H](CC(C)C)NC(=O)[C@H](CC(C)C)NC(=O)[C@H](CCCNC(=N)N)NC(=O)[C@H](CC(N)=O)NC(=O)[C@H](CC(N)=O)NC(=O)[C@H](C)NC(=O)[C@H](C)NC(=O)[C@H](CCC(N)=O)NC(=O)[C@H](CCC(N)=O)NC(=O)[C@H](CCCCN)NC(=O)[C@H](CCC(=O)O)NC(=O)[C@H](CCCCN)NC(=O)[C@H](CCC(=O)O)NC(=O)[C@H](CCC(N)=O)NC(=O)[C@H](CCCCN)NC(=O)[C@H](CCC(=O)O)NC(=O)[C@@H](NC(=O)[C@H](CCC(=O)O)NC(=O)[C@@H](NC(=O)[C@H](CCSC)NC(=O)[C@H](CCCCN)NC(=O)[C@H](CCCNC(=N)N)NC(=O)[C@H](CC(C)C)NC(=O)[C@H](CC(C)C)NC(=O)[C@H](Cc1ccccc1)NC(=O)[C@H](Cc1c[nH]c2ccccc12)NC(=O)[C@@H]1CCCN1C(=O)[C@H](CC(C)C)NC(=O)[C@H](CC(=O)O)NC(=O)[C@@H](NC(=O)[C@H](CO)NC(=O)[C@@H](NC(=O)[C@@H]1CCCN1C(=O)[C@@H]1CCCN1C(=O)CNC(=O)[C@@H]1CCC(=O)N1)[C@@H](C)CC)[C@@H](C)CC)[C@@H](C)CC)[C@@H](C)CC)[C@@H](C)O)C(N)=O [compound 187] | 72 | 100 | – | – |
